Assay results: patent publication US10821110B2, “Composite preparation, containing novel 3-(4--(benzyloxy)phenyl)hex-4-inoic acid derivative and another active ingredient, for preventing or treating metabolic diseases” (HYUNDAI PHARM CO., LTD., priority 2014, dated 2020)

Test system: male diet-induced obesity (DIO) mice
Assay: OGTT by co-administration with DPPIV inhibitor (sitagliptin), mouse model
Format: in vivo
Conditions: oral, sitagliptin 10 mg/kg alone

For `N[C@@H](CC(=O)N1CCn2c(nnc2C(F)(F)F)C1)Cc1cc(F)c(F)cc1F` [Sitagliptin, sitagliptin, reference compound], the “Reduction (%) of blood glucose AUC” value was 17.7%.
